One data set relates to C57Bl/6 mice. The following applies: mouse, in vivo; cited from earlier work.
Another data set concerns mice. Particulars: mouse, in vivo.

The source of these data is publication PMC12715762, “Discovery of VU6052254: A Novel, Potent M1 Positive Allosteric Modulator” (ACS Chemical Neuroscience, 2025).

With BQCA, the Racine scale seizures with C57Bl/6 mice was 4/5. Moreover, the “SLUDGE effects in modified Irwin battery” value in the data set with mice is “significant SLUDGE”.
